Data: ChEMBL document CHEMBL3745693, “Molecular Mechanism of Action of Triazolobenzodiazepinone Agonists of the Type 1 Cholecystokinin Receptor. Possible Cooperativity across the Receptor Homodimeric Complex” (J Med Chem, 2015)

Protein sequences, listed by entry. Tags and fused reporters are not part of them.
UniProt P32238, whole entry V125A: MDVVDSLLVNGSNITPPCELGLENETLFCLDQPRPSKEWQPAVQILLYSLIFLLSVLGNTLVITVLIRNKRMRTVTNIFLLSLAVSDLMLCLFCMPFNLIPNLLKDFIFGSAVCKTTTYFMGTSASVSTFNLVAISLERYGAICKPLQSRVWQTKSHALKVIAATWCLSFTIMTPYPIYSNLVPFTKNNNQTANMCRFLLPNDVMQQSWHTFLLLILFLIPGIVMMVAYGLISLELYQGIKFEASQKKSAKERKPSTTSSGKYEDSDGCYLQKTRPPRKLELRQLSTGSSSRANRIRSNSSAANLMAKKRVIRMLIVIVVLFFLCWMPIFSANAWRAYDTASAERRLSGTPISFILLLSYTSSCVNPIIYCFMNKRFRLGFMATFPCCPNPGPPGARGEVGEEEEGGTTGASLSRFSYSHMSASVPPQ
UniProt P32238, whole entry N98T: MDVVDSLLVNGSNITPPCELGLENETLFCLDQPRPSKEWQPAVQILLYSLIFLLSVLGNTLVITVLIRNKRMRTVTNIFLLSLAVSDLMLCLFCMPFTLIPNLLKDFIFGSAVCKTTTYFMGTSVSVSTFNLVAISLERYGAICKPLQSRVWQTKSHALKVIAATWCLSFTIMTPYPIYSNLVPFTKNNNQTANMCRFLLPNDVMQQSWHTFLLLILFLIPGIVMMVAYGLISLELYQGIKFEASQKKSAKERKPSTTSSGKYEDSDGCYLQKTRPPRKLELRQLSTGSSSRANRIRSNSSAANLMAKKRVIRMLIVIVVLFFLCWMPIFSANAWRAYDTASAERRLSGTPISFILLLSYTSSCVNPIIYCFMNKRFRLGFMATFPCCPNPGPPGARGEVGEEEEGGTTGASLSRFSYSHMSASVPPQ
UniProt P32238, whole entry W326A: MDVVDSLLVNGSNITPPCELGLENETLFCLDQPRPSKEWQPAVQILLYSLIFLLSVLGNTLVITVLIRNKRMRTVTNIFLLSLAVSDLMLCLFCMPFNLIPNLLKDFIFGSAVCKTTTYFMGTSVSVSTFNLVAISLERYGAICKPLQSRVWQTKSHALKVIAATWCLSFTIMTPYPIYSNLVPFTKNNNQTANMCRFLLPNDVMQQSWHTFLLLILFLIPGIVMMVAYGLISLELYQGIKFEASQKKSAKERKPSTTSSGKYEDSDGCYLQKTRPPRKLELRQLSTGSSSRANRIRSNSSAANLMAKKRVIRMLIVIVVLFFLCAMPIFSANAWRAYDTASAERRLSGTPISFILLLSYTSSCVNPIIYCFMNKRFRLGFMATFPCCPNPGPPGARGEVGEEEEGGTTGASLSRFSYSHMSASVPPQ
UniProt P32238, whole entry T117V/T118S: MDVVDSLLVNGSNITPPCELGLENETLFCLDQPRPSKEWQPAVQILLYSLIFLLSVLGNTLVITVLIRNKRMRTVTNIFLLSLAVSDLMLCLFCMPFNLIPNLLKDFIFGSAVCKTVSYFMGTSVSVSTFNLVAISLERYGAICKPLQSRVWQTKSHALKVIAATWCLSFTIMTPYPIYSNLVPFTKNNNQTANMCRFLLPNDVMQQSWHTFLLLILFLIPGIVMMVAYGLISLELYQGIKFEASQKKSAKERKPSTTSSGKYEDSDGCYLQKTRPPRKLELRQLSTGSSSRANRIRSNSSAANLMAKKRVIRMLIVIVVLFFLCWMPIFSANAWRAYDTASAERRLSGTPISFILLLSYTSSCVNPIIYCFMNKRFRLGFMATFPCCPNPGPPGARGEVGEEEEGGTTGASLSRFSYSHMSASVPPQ
UniProt P32238, whole entry L356H: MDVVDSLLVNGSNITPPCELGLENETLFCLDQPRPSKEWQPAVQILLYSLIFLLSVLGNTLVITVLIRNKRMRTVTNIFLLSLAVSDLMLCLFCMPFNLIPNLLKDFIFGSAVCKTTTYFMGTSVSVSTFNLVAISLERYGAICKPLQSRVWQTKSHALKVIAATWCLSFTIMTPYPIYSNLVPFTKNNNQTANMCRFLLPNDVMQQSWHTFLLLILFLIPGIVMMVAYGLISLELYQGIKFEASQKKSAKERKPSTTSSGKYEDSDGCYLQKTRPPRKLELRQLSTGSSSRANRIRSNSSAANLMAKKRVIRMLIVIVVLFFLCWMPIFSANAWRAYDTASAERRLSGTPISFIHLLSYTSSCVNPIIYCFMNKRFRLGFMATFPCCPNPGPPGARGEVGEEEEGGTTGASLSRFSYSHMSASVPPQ
UniProt P32238, whole entry: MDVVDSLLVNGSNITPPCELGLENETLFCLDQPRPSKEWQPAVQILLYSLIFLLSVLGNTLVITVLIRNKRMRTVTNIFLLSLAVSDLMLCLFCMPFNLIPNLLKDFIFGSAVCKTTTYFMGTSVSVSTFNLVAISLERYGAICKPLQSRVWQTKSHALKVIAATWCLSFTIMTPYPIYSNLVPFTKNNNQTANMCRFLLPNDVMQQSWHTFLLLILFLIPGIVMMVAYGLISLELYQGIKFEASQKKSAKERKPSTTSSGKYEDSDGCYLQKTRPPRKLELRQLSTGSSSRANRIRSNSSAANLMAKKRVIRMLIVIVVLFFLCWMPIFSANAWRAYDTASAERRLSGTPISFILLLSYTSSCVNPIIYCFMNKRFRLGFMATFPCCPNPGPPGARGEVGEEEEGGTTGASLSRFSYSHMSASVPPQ
UniProt P32238, whole entry M121A: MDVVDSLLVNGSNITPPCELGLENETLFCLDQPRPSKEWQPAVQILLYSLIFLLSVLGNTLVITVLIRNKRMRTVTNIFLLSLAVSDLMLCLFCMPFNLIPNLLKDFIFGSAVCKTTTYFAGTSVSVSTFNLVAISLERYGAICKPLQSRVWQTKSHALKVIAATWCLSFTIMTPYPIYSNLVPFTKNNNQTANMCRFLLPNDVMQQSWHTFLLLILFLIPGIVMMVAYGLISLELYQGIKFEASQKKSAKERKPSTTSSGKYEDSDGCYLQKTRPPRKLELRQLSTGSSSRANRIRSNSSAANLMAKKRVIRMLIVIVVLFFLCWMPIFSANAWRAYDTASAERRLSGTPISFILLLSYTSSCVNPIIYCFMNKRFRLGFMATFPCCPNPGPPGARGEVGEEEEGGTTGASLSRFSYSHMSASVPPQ
UniProt P30551, whole entry: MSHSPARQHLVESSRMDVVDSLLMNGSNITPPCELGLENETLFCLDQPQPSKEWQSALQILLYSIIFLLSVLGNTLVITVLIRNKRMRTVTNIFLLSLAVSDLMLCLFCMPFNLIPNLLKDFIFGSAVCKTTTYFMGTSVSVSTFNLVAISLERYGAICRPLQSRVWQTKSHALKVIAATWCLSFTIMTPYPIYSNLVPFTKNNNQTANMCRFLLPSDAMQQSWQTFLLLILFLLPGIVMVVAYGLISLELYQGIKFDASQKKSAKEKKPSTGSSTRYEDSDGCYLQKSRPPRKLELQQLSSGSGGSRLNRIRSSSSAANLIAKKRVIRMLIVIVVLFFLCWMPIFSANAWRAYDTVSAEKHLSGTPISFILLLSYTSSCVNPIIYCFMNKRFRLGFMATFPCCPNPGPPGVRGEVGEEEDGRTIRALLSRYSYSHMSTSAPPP

Key:
[1] = target: T1, Cholecystokinin receptor type A (Homo sapiens, UniProt P32238, V125A); test: Displacement of [125I-CCK] from human CCK1R V3.36A mutant expressed in CHO cells after 60 mins by scintillation counter; type: cell-based
[2] = target: T2, Cholecystokinin receptor type A (Homo sapiens, UniProt P32238, N98T); test: Displacement of [125I-BDZ-1] from human CCK1R N2.61T mutant expressed in CHO cells after 60 mins by scintillation counter; type: cell-based
[3] = target: T1, Cholecystokinin receptor type A; test: Agonist activity at human CCK1R V3.36A mutant expressed in CHO cells assessed as intracellular calcium response by fluorescence analysis; type: functional, cell-based
[4] = target: T3, Gastrin/cholecystokinin type B receptor (Homo sapiens, UniProt P32239, H376L); test: Displacement of [125I-BDZ-2] from human CCK2R H7.39L mutant expressed in CHO cells after 60 mins by scintillation counter; type: cell-based
[5] = target: T4, Cholecystokinin receptor type A (Homo sapiens, UniProt P32238, W326A); test: Displacement of [125I-CCK] from human CCK1R W6.48A mutant expressed in CHO cells after 60 mins by scintillation counter; type: cell-based
[6] = target: T4, Cholecystokinin receptor type A; test: Agonist activity at human CCK1R W6.48A mutant expressed in CHO cells assessed as intracellular calcium response by fluorescence analysis; type: functional, cell-based
[7] = target: T5, Cholecystokinin receptor type A (Homo sapiens, UniProt P32238, T117V/T118S); test: Displacement of [125I-BDZ-1] from human CCK1R T3.28V, T3.29S mutant expressed in CHO cells after 60 mins by scintillation counter; type: cell-based
[8] = target: Cholecystokinin receptor type A (Rattus norvegicus, UniProt P30551); test: Displacement of [125I]-BDZ-1 from wild-type rat CCK1R expressed in COS cells after 60 mins by scintillation counter; type: cell-based
[9] = target: T6, Gastrin/cholecystokinin type B receptor (Homo sapiens, UniProt P32239); test: Displacement of [125I-CCK] from wild-type human CCK2R expressed in CHO cells after 60 mins by scintillation counter; type: cell-based
T6 sequence (P32239 whole entry): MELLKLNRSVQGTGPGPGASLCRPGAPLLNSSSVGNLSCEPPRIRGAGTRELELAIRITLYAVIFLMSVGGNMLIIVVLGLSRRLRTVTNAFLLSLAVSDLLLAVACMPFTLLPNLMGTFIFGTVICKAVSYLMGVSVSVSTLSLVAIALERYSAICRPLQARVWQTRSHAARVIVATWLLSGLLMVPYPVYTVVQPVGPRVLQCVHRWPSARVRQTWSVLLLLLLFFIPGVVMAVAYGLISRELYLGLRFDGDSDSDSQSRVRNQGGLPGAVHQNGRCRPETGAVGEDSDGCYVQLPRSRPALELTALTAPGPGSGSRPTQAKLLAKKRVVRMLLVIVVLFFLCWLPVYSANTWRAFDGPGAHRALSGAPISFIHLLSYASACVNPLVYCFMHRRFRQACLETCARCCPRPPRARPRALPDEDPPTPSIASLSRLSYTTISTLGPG

[10] = target: T5, Cholecystokinin receptor type A; test: Displacement of [125I-CCK] from human CCK1R T3.28V, T3.29S mutant expressed in CHO cells after 60 mins by scintillation counter; type: cell-based
[11] = target: Cholecystokinin receptor type A (Homo sapiens, UniProt P32238, L356H); test: Displacement of [125I-CCK] from human CCK1R L7.39H mutant expressed in CHO cells after 60 mins by scintillation counter; type: cell-based
[12] = target: Cholecystokinin receptor type A (Homo sapiens, UniProt P32238); test: Displacement of [125I-CCK] from wild-type human CCK1R expressed in CHO cells after 60 mins by scintillation counter; type: cell-based
[13] = target: T2, Cholecystokinin receptor type A; test: Displacement of [125I-CCK] from human CCK1R N2.61T mutant expressed in CHO cells after 60 mins by scintillation counter; type: cell-based
[14] = target: Gastrin/cholecystokinin type B receptor (Homo sapiens, UniProt P32239, V349I/Y350F); test: Agonist activity at human CCK2R V6.51I, Y6.52F mutant expressed in CHO cells assessed as intracellular calcium response by fluorescence analysis; type: functional, cell-based
[15] = target: T4, Cholecystokinin receptor type A; test: Displacement of [125I-BDZ-1] from human CCK1R W6.48A mutant expressed in CHO cells after 60 mins by scintillation counter; type: cell-based
[16] = target: T1, Cholecystokinin receptor type A; test: Displacement of [125I-BDZ-1] from human CCK1R V3.36A mutant expressed in CHO cells after 60 mins by scintillation counter; type: cell-based
[17] = target: Cholecystokinin receptor type A (Homo sapiens, UniProt P32238, M121A); test: Displacement of [125I-BDZ-1] from human CCK1R M3.32A mutant expressed in CHO cells after 60 mins by scintillation counter; type: cell-based
[18] = target: T3, Gastrin/cholecystokinin type B receptor; test: Displacement of [125I-CCK] from human CCK2R H7.39L mutant expressed in CHO cells after 60 mins by scintillation counter; type: cell-based
[19] = target: T3, Gastrin/cholecystokinin type B receptor; test: Agonist activity at human CCK2R H7.39L mutant expressed in CHO cells assessed as intracellular calcium response by fluorescence analysis; type: functional, cell-based

IC50 [1]: 0.01 µM
IC50 [2]: 0.105 µM
EC50 [3]: 0.00331 µM
IC50 [4]: 0.01 µM
IC50 [5]: 0.00141 µM
EC50 [6]: 0.00501 µM
IC50 [7]: 0.00724 µM
IC50 [8]: 0.168 µM
IC50 [9]: 0.692 µM
IC50 [10]: 0.0427 µM
IC50 [11]: 0.794 µM
SMILES: Cc1cc(C)cc(C[C@H]2CCCCN2C(=O)CN2C(=O)[C@@H](Cc3n[nH]c4ccccc34)c3nnc(-c4ccccc4)n3-c3ccccc32)c1

IC50 [1]: 0.0166 µM
Ki [12]: 0.275 µM
IC50 ([12]; read-out: IC50): 0.0268 µM
IC50 ([12]; read-out: pIC50 (converted)): 0.0224 µM
IC50 [2]: 0.0933 µM
pEC50 [3]: 8.51
IC50 [4]: 0.002 µM
IC50 [13]: 0.002 µM
EC50 [14]: 0.282 µM
IC50 [15]: 0.269 µM
IC50 [8]: 0.0765 µM
IC50 [9]: 0.275 µM
IC50 [16]: 0.794 µM
IC50 [17]: 0.0151 µM
IC50 [11]: 0.676 µM
IC50 [18]: 0.0017 µM
EC50 [19]: 0.0589 µM
SMILES: CC(C)N(Cc1ccccc1)C(=O)CN1C(=O)[C@@H](Cc2c[nH]c3ccccc23)c2nnc(-c3ccccc3)n2-c2ccccc21 [CE-326597]

Each block holds one compound with its values, some of them ahead of it.
